The assay concerns MRI-H187 melanoma tumor xenografts. Put plainly: Net tumor volume in tumor xenografts. In kind it is in vivo, female athymic mice. The note with it: Aplidine 50 μg/kg, DTIC 40 mg/kg, Carboplatin 25 mg/kg, i.p. The text has this: Athymic nude female mice were received from Harlan Sprague Dawley, Madison, Wis. at 4-5 weeks of age. Mice were acclimated to the laboratory for at least one week prior to implantation of tumor. Animals were housed in static cages with food and water allowed ad libitum. Experimental animals were implanted with either tumor fragments derived from transplantation established human tumors or with cells obtain directly from in vitro culture. Tumors were implanted subcutaneously on the right flank on Day 0.
Tumor size measurements were recorded twice weekly beginning on day 4 or 5 using vernier calipers. The formula to calculate volume for a prolate ellipsoid was used to estimate tumor volume from 2-dimensional tumor measurements: tumor volume (mm^3)=(length×width^2)÷2. Assuming unit density, volume was converted to weight (i.e., 1 mm^3=1 mg). […] Treatments were initiated and administered on an individual body weight basis. A dose range finding study was performed on each tumor model to determine the appropriate dose level of each compound used in the combination studies.

The structures appear in SMILES notation.

On to `N.N.O=C([O-])C1(C(=O)[O-])CCC1.[Pt+2]` [carboplatin], for which the “Net Tumor Volume ± S.E.M.” value by setting is: (MRI-H187, DAY 20) 143 ± 13 mg; (MRI-H187, DAY 31) 398 ± 76 mg; (MRI-H187, DAY 49) 1447 ± 261 mg.

For the origin of these results see patent US8258098B2, “Antitumoral treatments” (Pharma Mar, S.A., priority 2006, dated 2012).
